## scFv variants of Ab-95 (light chain) against a SARS-CoV-2 spike peptide

Values reported by Engelhart et al. 2022, doi:10.1038/s41597-022-01779-4 (FLAb copy).

Target peptide (SARS-CoV-2 spike, HR2 region): PDVDLGDISGINAS

Each scFv is VH, a 15-residue (Gly4Ser)3 linker, VL, as in the parent Ab-95, and differs from it in the CDRs of the light chain only.
VH: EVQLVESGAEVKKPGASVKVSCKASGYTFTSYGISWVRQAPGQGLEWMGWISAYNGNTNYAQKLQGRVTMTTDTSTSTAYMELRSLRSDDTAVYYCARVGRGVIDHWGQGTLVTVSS
VL: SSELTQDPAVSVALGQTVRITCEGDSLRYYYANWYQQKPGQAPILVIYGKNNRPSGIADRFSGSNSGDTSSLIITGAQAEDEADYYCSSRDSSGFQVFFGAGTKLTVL

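Phage display of a naive human antibody library on the peptide gave the parent. Variants in AAYL52 differ from the parent at up to three CDR positions; double and triple changes were sampled at random. The assay is AlphaSeq: two haploid yeast populations carry antibody and antigen on their surface. After mating in shaken culture at 30 °C for 16 h, diploids were selected and their barcode pairs sequenced. Each replicate has its own calibration line, from reference interactions of the BCL2 family. Each pool was mated in three replicate cultures.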

The parent's light chain CDRs are EGDSLRYYYAN, GKNNRPS, SSRDSSGFQVF; each variant's own CDRs replace them letter for letter.
Scale: log10 of Kd in nM, estimated from mating counts; low values are strong binders.
Where no diploid with the target was found in that replicate, the entry reads "nd": below detection, most likely a poor binder, though not proof of it.
Empty control strains, which show no peptide, gave a signal in 28% of pairings with library AAYL52; the median was 3.91 and 95% of these signals were weaker than 2.90. No background was subtracted. The control count says in how many pairings with the empty strains this scFv gave a signal, with their mean in brackets.

{"CDR-L1": "EGDSLRYYYAN", "CDR-L2": "GKNNRES", "CDR-L3": "SSRERSGFQVF", "replicates, log10 nM": "nd / nd / nd", "empty controls": "2 of 9 (3.65)"}
{"CDR-L1": "EGIWLRYYYAN", "CDR-L2": "GKNNRPS", "CDR-L3": "SSRDSSFFQVF", "replicates, log10 nM": "nd / nd / nd", "empty controls": "5 of 9 (3.55)"}
{"CDR-L1": "EGDSLRYEYAN", "CDR-L2": "GKNNRPS", "CDR-L3": "SWRHSSGFQVF", "replicates, log10 nM": "nd / 3.17 / nd", "empty controls": "2 of 9 (3.75)"}
{"CDR-L1": "EGDSHRYYYKN", "CDR-L2": "GKNNRPS", "CDR-L3": "STRDSSGFQVF", "replicates, log10 nM": "4.17 / nd / nd", "empty controls": "3 of 9 (4.32)"}
{"CDR-L1": "EGDSLRAYYAN", "CDR-L2": "GKNLRPS", "CDR-L3": "SSKDSSGFQVF", "replicates, log10 nM": "2.12 / 2.35 / 2.20", "empty controls": "4 of 9 (3.35)"}
{"CDR-L1": "EGDSLRYYYAN", "CDR-L2": "GKNNRPS", "CDR-L3": "SSRDCSGTQVF", "replicates, log10 nM": "nd / 3.10 / nd", "empty controls": "1 of 9 (3.84)"}
{"CDR-L1": "EGVSLRYYYAC", "CDR-L2": "GKNNRPS", "CDR-L3": "SSRWSSGFQVF", "replicates, log10 nM": "5.29 / 5.77 / 3.99", "empty controls": "2 of 9 (4.75)"}
{"CDR-L1": "DGDSLRYAYAN", "CDR-L2": "GKNNRPR", "CDR-L3": "SSRDSSGFQVF", "replicates, log10 nM": "2.14 / 1.76 / 2.22", "empty controls": "1 of 9 (3.84)"}
{"CDR-L1": "IGDSLRYYYQN", "CDR-L2": "GKNNRPS", "CDR-L3": "SSRCSSGFQVF", "replicates, log10 nM": "nd / nd / nd", "empty controls": "3 of 9 (3.80)"}
{"CDR-L1": "EGDSMNYYYAC", "CDR-L2": "GKNNRPS", "CDR-L3": "SSRDSSGFQVF", "replicates, log10 nM": "4.05 / nd / 3.80", "empty controls": "2 of 9 (4.25)"}
{"CDR-L1": "EGDSLRYYAAN", "CDR-L2": "FKNNRPS", "CDR-L3": "SSRDSRGFQVF", "replicates, log10 nM": "5.07 / nd / nd", "empty controls": "2 of 9 (3.76)"}
{"CDR-L1": "EGDSLRYYYAN", "CDR-L2": "GKRNRPS", "CDR-L3": "SSRDWSVFQVF", "replicates, log10 nM": "nd / 4.73 / 3.46", "empty controls": "0 of 9"}
{"CDR-L1": "EGDSLRDYYAN", "CDR-L2": "GKNNRPS", "CDR-L3": "SSRISSGFWVF", "replicates, log10 nM": "3.93 / 4.89 / 3.64", "empty controls": "4 of 9 (4.06)"}
{"CDR-L1": "ECDSLRYYYAS", "CDR-L2": "GKNNRPS", "CDR-L3": "SSRDSSGSQVF", "replicates, log10 nM": "nd / 3.95 / nd", "empty controls": "4 of 9 (4.29)"}
{"CDR-L1": "EGDSLRYYYAN", "CDR-L2": "GKGNRPF", "CDR-L3": "SSRDSSGFLVF", "replicates, log10 nM": "3.00 / 2.76 / 3.07", "empty controls": "4 of 9 (4.14)"}
{"CDR-L1": "ECDSLRYYYAN", "CDR-L2": "GKNNRPS", "CDR-L3": "SGRLSSGFQVF", "replicates, log10 nM": "nd / nd / nd", "empty controls": "3 of 9 (4.50)"}
{"CDR-L1": "EGDSYRCYYAN", "CDR-L2": "GKNNRSS", "CDR-L3": "SSRDSSGFQVF", "replicates, log10 nM": "nd / nd / nd", "empty controls": "2 of 9 (3.58)"}
{"CDR-L1": "EGDSLRYYYAN", "CDR-L2": "GKNIRPI", "CDR-L3": "VSRDSSGFQVF", "replicates, log10 nM": "3.57 / 3.77 / 3.81", "empty controls": "4 of 9 (4.61)"}
{"CDR-L1": "EGDELRYYYAN", "CDR-L2": "GKNNRPS", "CDR-L3": "SSRDSSWMQVF", "replicates, log10 nM": "2.30 / 1.55 / 2.23", "empty controls": "4 of 9 (3.92)"}
{"CDR-L1": "EGDSLRYYYCN", "CDR-L2": "GKNNAES", "CDR-L3": "SSRDSSGFQVF", "replicates, log10 nM": "2.78 / 2.97 / 3.39", "empty controls": "4 of 9 (3.60)"}

The 2 strongest on average among those seen in every replicate, once more:

{"CDR-L1": "EGDELRYYYAN", "CDR-L2": "GKNNRPS", "CDR-L3": "SSRDSSWMQVF", "replicates, log10 nM": "2.30 / 1.55 / 2.23", "empty controls": "4 of 9 (3.92)"}
{"CDR-L1": "DGDSLRYAYAN", "CDR-L2": "GKNNRPR", "CDR-L3": "SSRDSSGFQVF", "replicates, log10 nM": "2.14 / 1.76 / 2.22", "empty controls": "1 of 9 (3.84)"}